Experimental data as given in patent publication US4550116A, “Piperidine derivatives” (Fordonal, S.A., priority 1983, dated 1985).

System: histamine H1-receptor
Test: Antihistamine activity in anaesthetized rats (vasodepressor responses to histamine)
Type: in vivo, rat
Conditions: 0.3 mg/kg i.v.; pentobarbitone anaesthetized rats
Procedure: B. Antihistamine activity in anaesthetized rats
Test compounds were administered to pentobarbitone anaesthetized rats at 0.3 mg/kg i.v. following stable, submaximal, vasodepressor responses to histamine.

With `CC(C)(C)c1ccc(C(O)CCCN2CCC(C(O)(c3ccccc3)c3ccccc3)CC2)cc1` (stereo not drawn) [TERFENADINE, α-[4-(1,1-dimethylethyl)phenyl]-4-(hydroxydiphenylmethyl)-1-piperidinebutanol, reference compound] the “TEST B ANT[…] RAT (inhibition of the histamine response)” value was “++ (25-50%)”.
